Test results taken from US6933298B2, “Pyridine-2,4-dicarboxylic acid diamides and pyrimidine-4,6-dicarboxylic acid diamides and the use thereof for selectively inhibiting collagenases” (Aventis Pharma Deutschland GmbH, priority 2001, dated 2005).

Molecular target: T1, catalytic domain of human collagenase-3 (MMP-13) (Homo sapiens, UniProt P45452)
T1 construct: Determining the enzymic activity of the catalytic domain of human collagenase-3 (MMP-13); purchased INVITEK, Berlin 30 100 803
Assay: Enzymic activity of the catalytic domain of human collagenase-3 (MMP-13), fluorogenic substrate
Type: biochemical
Conditions: activated with APMA, pH 7.5, read-out: IC50 MMP13
Description: Determining the enzymic activity of the catalytic domain of human collagenase-3 (MMP-13).
Activation of the proenzyme:
2 parts by volume of proenzyme are incubated with 1 part by volume of APMA solution at 37° C. for 1.5 hours. The APMA solution is prepared from a 10 mmol/l solution of p-aminophenylmercuric acetate in 0.1 mmol/l NaOH by diluting it with 3 parts by volume of Tris/HCl buffer, pH 7.5 (see below). The pH is adjusted to between 7.0 and 7.5 by adding 1 mmol/l HCl.
In order to measure the enzyme activity, 10 μl of enzyme solution are incubated for 15 minutes with 10 μl of a buffered 3% (v/v) solution of dimethyl sulfoxide (reaction 1). In order to measure the enzyme inhibitor activity, 10 μl of enzyme solution are incubated with 10 μl of a buffered 3% (v/v) solution of dimethyl sulfoxide which contains the enzyme inhibitor (reaction 2).
The enzyme activity is presented as increase in extinction/minute.
The buffer solution contains 0.05% Brij (Sigma, Deisenhofen, Germany) and also 0.1 mol of Tris/HCl/l, 0.1 mol of NaCl/1 and 0.01 mol of CaCl2/l (pH=7.5).
The substrate solution contains 0.75 mmol of the fluorogenic substrate (7-methoxycoumarin-4-yl)acetyl-Pro-Leu-Gly-Leu-3-(2′,4′-dinitrophenyl)-L-2,3-diaminopropionyl-Ala-Arg-NH2/I(Bachem, Heidelberg, Germany).

Cc1cccc(CNC(=O)c2cc(C(=O)NCc3cccc(C)c3)ncn2)c1 [Example 18]
IC50: 72 nM
